Experimental data reported in paper PMC4896931, “The discovery of 2-substituted phenol quinazolines as potent RET kinase inhibitors with improved KDR selectivity” (European Journal of Medicinal Chemistry, 2016).

The chains behind the UniProt entries cited, without tags or fusion partners. Residues count along the entry.
UniProt P07949, 29-1114: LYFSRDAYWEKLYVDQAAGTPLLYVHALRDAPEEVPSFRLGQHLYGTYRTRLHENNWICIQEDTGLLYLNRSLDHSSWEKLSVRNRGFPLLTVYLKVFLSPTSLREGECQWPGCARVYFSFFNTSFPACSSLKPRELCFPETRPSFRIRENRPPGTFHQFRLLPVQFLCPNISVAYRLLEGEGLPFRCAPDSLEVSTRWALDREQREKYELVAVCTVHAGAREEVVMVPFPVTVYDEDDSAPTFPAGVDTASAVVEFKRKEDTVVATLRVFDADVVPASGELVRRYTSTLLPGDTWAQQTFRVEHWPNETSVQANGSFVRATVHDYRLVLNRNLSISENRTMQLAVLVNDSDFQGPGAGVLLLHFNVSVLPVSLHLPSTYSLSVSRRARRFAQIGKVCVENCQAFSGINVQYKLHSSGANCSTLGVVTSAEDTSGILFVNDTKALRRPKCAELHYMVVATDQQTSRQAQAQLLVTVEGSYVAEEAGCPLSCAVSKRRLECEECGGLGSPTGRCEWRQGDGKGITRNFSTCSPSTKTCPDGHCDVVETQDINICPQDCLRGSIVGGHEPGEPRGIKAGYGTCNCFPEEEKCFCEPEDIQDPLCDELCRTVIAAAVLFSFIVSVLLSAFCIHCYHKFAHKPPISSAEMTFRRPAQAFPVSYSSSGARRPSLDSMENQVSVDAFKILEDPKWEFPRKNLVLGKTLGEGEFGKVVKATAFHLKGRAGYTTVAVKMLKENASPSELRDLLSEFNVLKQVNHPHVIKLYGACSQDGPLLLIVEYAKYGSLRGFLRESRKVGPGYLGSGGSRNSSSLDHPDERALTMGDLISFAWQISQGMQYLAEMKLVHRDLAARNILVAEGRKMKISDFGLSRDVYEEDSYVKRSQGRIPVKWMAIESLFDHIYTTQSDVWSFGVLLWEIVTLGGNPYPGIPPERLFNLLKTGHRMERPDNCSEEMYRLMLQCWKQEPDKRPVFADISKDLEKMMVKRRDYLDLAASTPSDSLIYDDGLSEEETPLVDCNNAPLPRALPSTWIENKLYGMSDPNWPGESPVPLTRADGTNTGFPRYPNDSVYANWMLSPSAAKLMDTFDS
UniProt P35968, 20-1356: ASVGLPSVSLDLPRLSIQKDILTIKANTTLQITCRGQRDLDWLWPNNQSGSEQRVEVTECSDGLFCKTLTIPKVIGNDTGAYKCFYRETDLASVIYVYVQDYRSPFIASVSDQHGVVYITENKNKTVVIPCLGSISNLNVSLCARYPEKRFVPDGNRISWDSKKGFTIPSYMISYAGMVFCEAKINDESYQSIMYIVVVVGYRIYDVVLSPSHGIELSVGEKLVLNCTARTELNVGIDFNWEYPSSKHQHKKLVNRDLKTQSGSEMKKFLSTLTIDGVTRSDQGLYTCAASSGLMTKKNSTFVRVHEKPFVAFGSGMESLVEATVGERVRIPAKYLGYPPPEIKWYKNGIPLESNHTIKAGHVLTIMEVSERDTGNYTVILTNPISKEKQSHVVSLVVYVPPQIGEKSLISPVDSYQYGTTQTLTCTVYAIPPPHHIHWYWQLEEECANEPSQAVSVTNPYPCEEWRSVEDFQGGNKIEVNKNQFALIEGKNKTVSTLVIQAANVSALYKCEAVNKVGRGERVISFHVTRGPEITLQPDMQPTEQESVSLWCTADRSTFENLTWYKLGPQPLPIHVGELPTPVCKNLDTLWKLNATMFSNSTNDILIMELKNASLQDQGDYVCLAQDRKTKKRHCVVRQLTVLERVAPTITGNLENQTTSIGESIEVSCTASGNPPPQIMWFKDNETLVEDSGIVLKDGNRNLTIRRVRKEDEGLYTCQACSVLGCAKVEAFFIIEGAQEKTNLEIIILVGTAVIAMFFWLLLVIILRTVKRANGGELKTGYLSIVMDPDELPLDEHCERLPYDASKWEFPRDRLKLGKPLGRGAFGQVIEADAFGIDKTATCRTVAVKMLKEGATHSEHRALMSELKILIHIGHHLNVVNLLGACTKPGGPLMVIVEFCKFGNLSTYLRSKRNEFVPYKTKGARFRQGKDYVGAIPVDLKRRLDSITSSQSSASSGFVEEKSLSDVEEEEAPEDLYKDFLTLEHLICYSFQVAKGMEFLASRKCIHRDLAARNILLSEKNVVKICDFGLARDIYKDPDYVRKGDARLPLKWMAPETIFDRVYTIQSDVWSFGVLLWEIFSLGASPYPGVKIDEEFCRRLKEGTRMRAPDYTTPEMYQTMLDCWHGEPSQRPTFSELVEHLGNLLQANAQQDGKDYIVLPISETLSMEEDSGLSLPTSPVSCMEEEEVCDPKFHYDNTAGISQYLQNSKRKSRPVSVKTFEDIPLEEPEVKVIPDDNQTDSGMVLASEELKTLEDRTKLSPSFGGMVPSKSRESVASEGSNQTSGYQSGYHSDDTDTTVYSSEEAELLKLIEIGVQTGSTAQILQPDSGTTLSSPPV

Legend:
RET = RET (Homo sapiens, UniProt P07949); experiment: RET biochemical assay (CisBio HTRF kinEASE); conditions: read-out: RET IC50
KDR = KDR (Homo sapiens, UniProt P35968); experiment: KDR biochemical assay (CisBio HTRF kinEASE); conditions: read-out: KDR IC50
[1] = target: T1, BaF3 cells expressing KIF5B-RET (Homo sapiens, UniProt P07949+P33176); experiment: BaF3 cellular assay, RET-driven line (CellTiter-Glo viability); conditions: read-out: RET IC50
T1 sequence (P33176+P07949 with tags, fused parts or gaps): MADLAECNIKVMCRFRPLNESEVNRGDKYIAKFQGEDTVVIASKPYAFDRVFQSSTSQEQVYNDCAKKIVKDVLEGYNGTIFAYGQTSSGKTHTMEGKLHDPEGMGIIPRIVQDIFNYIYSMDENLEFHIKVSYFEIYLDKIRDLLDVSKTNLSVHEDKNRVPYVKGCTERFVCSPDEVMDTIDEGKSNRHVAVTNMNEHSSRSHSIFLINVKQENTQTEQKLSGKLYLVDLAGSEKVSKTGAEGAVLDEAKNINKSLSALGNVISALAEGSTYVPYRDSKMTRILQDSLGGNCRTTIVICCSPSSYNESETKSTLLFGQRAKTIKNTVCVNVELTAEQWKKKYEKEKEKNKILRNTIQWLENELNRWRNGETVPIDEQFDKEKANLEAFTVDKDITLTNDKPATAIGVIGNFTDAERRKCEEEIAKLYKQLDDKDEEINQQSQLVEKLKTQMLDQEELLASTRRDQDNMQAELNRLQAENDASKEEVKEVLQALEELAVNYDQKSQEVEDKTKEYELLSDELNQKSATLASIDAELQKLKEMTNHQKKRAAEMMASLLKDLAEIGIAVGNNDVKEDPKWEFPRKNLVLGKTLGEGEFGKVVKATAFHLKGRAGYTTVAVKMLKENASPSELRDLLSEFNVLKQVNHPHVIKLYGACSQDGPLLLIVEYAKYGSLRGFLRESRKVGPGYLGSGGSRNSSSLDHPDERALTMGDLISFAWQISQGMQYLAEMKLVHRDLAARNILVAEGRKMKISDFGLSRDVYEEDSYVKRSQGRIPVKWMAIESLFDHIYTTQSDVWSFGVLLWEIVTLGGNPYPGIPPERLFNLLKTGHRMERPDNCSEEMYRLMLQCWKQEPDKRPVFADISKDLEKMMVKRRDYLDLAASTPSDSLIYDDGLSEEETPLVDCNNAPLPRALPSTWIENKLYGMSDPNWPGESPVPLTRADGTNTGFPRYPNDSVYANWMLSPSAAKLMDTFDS

COc1cc2ncnc(Nc3ccc(F)c(O)c3)c2cc1OC
IC50 (RET): 3.2 nM
IC50 (KDR): 72 nM
IC50 [1]: 490 nM

COc1cc2ncnc(N3CCc4c(O)cccc43)c2cc1OC
IC50 (KDR): 9500 nM

COc1cc2ncnc(Nc3cccc(O)c3O)c2cc1OC [Compound 10, 3-((6,7-Dimethoxyquinazolin-4-yl)amino)benzene-1,2-diol hydrochloride]
IC50 (RET): 3.9 nM
IC50 (KDR): 2300 nM
IC50 [1]: 1100 nM

COc1cc2ncnc(Nc3cccc(O)c3Br)c2cc1OC [Compound 11, 2-Bromo-3-((6,7-dimethoxyquinazolin-4-yl)amino)phenol hydrochloride]
IC50 (RET): 23 nM
IC50 (KDR): 4100 nM

COc1cc2ncnc(Nc3cccc(O)c3Cl)c2cc1OC [Compound 12, 2-Chloro-3-((6,7-dimethoxyquinazolin-4-yl)amino)phenol hydrochloride]
IC50 (RET): 19 nM
IC50 (KDR): 2500 nM

COc1cc2ncnc(Nc3cccc(O)c3C)c2cc1OC [Compound 13, 3-((6,7-Dimethoxyquinazolin-4-yl)amino)-2-methylphenol hydrochloride]
IC50 (RET): 190 nM

COc1cc2ncnc(Nc3cccc(O)c3F)c2cc1OC [Compound 14, 3-((6,7-Dimethoxyquinazolin-4-yl)amino)-2-fluorophenol]
IC50 (RET): 10 nM

COc1cc2ncnc(Nc3c(Cl)ccc(O)c3F)c2cc1OC [Compound 34, 4-Chloro-3-((6,7-dimethoxyquinazolin-4-yl)amino)-2-fluorophenol]
IC50 (RET): 4.8 nM

COc1cc2ncnc(Nc3cc(F)cc(O)c3C)c2cc1OC [Compound 35, 3-((6,7-Dimethoxyquinazolin-4-yl)amino)-5-fluoro-2-methylphenol hydrochloride]
IC50 (RET): 21 nM
IC50 (KDR): 5900 nM

COc1cc2ncnc(Nc3c(Cl)ccc(O)c3Cl)c2cc1OC [Compound 39, 2,4-Dichloro-3-((6,7-dimethoxyquinazolin-4-yl)amino)phenol]
IC50 (RET): 9.7 nM

COc1cc2ncnc(Nc3c(F)ccc(O)c3Cl)c2cc1OC [Compound 40, 2-Chloro-3-((6,7-dimethoxyquinazolin-4-yl)amino)-4-fluorophenol]
IC50 (RET): 3.9 nM

COc1cc2ncnc(N(C)c3cccc(O)c3)c2cc1OC [Compound 41, 3-((6,7-Dimethoxyquinazolin-4-yl)(methyl)amino)phenol hydrochloride]
IC50 (RET): 210 nM
IC50 [1]: 7200 nM

COc1cc2ncnc(Sc3cccc(O)c3)c2cc1OC [Compound 43, 3-((6,7-Dimethoxyquinazolin-4-yl)thio)phenol hydrochloride]
IC50 (KDR): 210 nM

Where a name gives a salt, the structure may show the parent alone.
